± gives the uncertainty stated by the source.

B1: Tyrosine-protein kinase ABL1, residues 64 to 120; numbered along this chain, P00519 (parent)
chain: NLFVALYDFVASGDNTLSITKGEKLRVLGYNHNGEWCEAQTKNGQGWVPSNYITPVN

Variants of B1 are the subject of this data set. Kind of data set: abundance fitness (aPCA) (normalised: wild type 0, dead -1); higher = more abundant; growth selection in yeast, the domain comes from the species named. To be noted: Homo sapiens.
For NLFVALYDFVASGDNTLSITKGEKLRVLGYNHNGEVCEAQTKNGQGWVPSNYITPVN [W36V], the abundance fitness was -0.262 ± 0.093. For NLFVALYDFVASGDNTLSITKGEKLRVLGYNHNGEACEAQTKNGQGWVPSNYITPVN [W36A], the abundance fitness is -0.19 ± 0.077. Then NLFVALYDFVASGDNTLSITKGEKLRVLGYNHNGEICEAQTKNGQGWVPSNYITPVN [W36I], with -0.385 ± 0.18; and NLFVALYDFVASGDNTLSITKGEKLRVLGYNHNGESCEAQTKNGQGWVPSNYITPVN [W36S], with 0.053 ± 0.094. Then NLFVALYDFVASGDNTLSITKGEKLRVLGYNHNGECCEAQTKNGQGWVPSNYITPVN [W36C], with -0.47 ± 0.13; and NLFVALYDFVASGDNTLSITKGEKLRVLGYNHNGEMCEAQTKNGQGWVPSNYITPVN [W36M], with 0.124 ± 0.091. On to NLFVALYDFVASGDNTLSITKGEKLRVLGYNHNGEYCEAQTKNGQGWVPSNYITPVN [W36Y], for which the abundance fitness came to 0.212 ± 0.16. Consider NLFVALYDFVASGDNTLSITKGEKLRVLGYNHNGEFCEAQTKNGQGWVPSNYITPVN [W36F], for which the abundance fitness was 0.035 ± 0.13.

On to NLFVALYDFVASGDNTLSITKGEKLRVLGYNHNGELCEAQTKNGQGWVPSNYITPVN [W36L], for which the abundance fitness is -0.059 ± 0.079. To NLFVALYDFVASGDNTLSITKGEKLRVLGYNHNGEDCEAQTKNGQGWVPSNYITPVN [W36D] belongs -0.257 ± 0.31; to NLFVALYDFVASGDNTLSITKGEKLRVLGYNHNGERCEAQTKNGQGWVPSNYITPVN [W36R], -0.094 ± 0.068.

With NLFVALYDFVASGDNTLSITKGEKLRVLGYNHNGEPCEAQTKNGQGWVPSNYITPVN [W36P], the abundance fitness is -1.07 ± 0.28.

For the variant NLFVALYDFVASGDNTLSITKGEKLRVLGYNHNGEGCEAQTKNGQGWVPSNYITPVN [W36G], the abundance fitness is -0.784 ± 0.065. As for NLFVALYDFVASGDNTLSITKGEKLRVLGYNHNGEECEAQTKNGQGWVPSNYITPVN [W36E], the abundance fitness was -0.123 ± 0.13. To NLFVALYDFVASGDNTLSITKGEKLRVLGYNHNGEQCEAQTKNGQGWVPSNYITPVN [W36Q] belongs -0.208 ± 0.2; to NLFVALYDFVASGDNTLSITKGEKLRVLGYNHSGEWCEAQTKNGQGWVPSNYITPVN [N33S], -0.032 ± 0.068. As to NLFVALYDFVASGDNTLSITKGEKLRVLGYNHPGEWCEAQTKNGQGWVPSNYITPVN [N33P], the abundance fitness is -0.408 ± 0.1. Then NLFVALYDFVASGDNTLSITKGEKLRVLGYNHLGEWCEAQTKNGQGWVPSNYITPVN [N33L], with -0.234 ± 0.056; and NLFVALYDFVASGDNTLSITKGEKLRVLGYNHMGEWCEAQTKNGQGWVPSNYITPVN [N33M], with -0.21 ± 0.084. To NLFVALYDFVASGDNTLSITKGEKLRVLGYNHWGEWCEAQTKNGQGWVPSNYITPVN [N33W] belongs -0.389 ± 0.11; to NLFVALYDFVASGDNTLSITKGEKLRVLGYNHVGEWCEAQTKNGQGWVPSNYITPVN [N33V], -0.303 ± 0.087; to NLFVALYDFVASGDNTLSITKGEKLRVLGYNHYGEWCEAQTKNGQGWVPSNYITPVN [N33Y], -0.742 ± 0.24.

On to NLFVALYDFVASGDNTLSITKGEKLRVLGYNHQGEWCEAQTKNGQGWVPSNYITPVN [N33Q], for which the abundance fitness is -0.066 ± 0.06. To NLFVALYDFVASGDNTLSITKGEKLRVLGYNHRGEWCEAQTKNGQGWVPSNYITPVN [N33R] belongs -0.187 ± 0.075; to NLFVALYDFVASGDNTLSITKGEKLRVLGYNHTGEWCEAQTKNGQGWVPSNYITPVN [N33T], 0.173 ± 0.098. To NLFVALYDFVASGDNTLSITKGEKLRVLGYNHNDEWCEAQTKNGQGWVPSNYITPVN [G34D] belongs 0.003 ± 0.11; to NLFVALYDFVASGDNTLSITKGEKLRVLGYNHNLEWCEAQTKNGQGWVPSNYITPVN [G34L], -0.228 ± 0.085; to NLFVALYDFVASGDNTLSITKGEKLRVLGYNHNHEWCEAQTKNGQGWVPSNYITPVN [G34H], 0.037 ± 0.28. Consider NLFVALYDFVASGDNTLSITKGEKLRVLGYNHNYEWCEAQTKNGQGWVPSNYITPVN [G34Y], for which the abundance fitness was -0.196 ± 0.1. To NLFVALYDFVASGDNTLSITKGEKLRVLGYNHNEEWCEAQTKNGQGWVPSNYITPVN [G34E] belongs 0.154 ± 0.086; to NLFVALYDFVASGDNTLSITKGEKLRVLGYNHNREWCEAQTKNGQGWVPSNYITPVN [G34R], 0.161 ± 0.077; to NLFVALYDFVASGDNTLSITKGEKLRVLGYNHNNEWCEAQTKNGQGWVPSNYITPVN [G34N], 0.263 ± 0.19.

With NLFVALYDFVASGDNTLSITKGEKLRVLGYNHNQEWCEAQTKNGQGWVPSNYITPVN [G34Q], the abundance fitness was 0.102 ± 0.13. Turning to NLFVALYDFVASGDNTLSITKGEKLRVLGYNHNIEWCEAQTKNGQGWVPSNYITPVN [G34I], the abundance fitness is -0.426 ± 0.27. Then NLFVALYDFVASGDNTLSITKGEKLRVLGYNHNFEWCEAQTKNGQGWVPSNYITPVN [G34F], with -0.198 ± 0.082; and NLFVALYDFVASGDNTLSITKGEKLRVLGYNHNWEWCEAQTKNGQGWVPSNYITPVN [G34W], with -0.279 ± 0.14; and NLFVALYDFVASGDNTLSITKGEKLRVLGYNHNSEWCEAQTKNGQGWVPSNYITPVN [G34S], with -0.041 ± 0.099.

In the case of NLFVALYDFVASGDNTLSITKGEKLRVLGYNHNKEWCEAQTKNGQGWVPSNYITPVN [G34K], the abundance fitness came to 0.112 ± 0.061. Consider NLFVALYDFVASGDNTLSITKGEKLRVLGYNHNMEWCEAQTKNGQGWVPSNYITPVN [G34M], for which the abundance fitness was -0.096 ± 0.16. For NLFVALYDFVASGDNTLSITKGEKLRVLGYNHNTEWCEAQTKNGQGWVPSNYITPVN [G34T], the abundance fitness is -0.115 ± 0.13. For NLFVALYDFVASGDNTLSITKGEKLRVLGYNHNAEWCEAQTKNGQGWVPSNYITPVN [G34A], the abundance fitness amounted to 0.04 ± 0.07. As for NLFVALYDFVASGDNTLSITKGEKLRVLGYNHNCEWCEAQTKNGQGWVPSNYITPVN [G34C], the abundance fitness is -0.172 ± 0.12. In the case of NLFVALYDFVASGDNTLSITKGEKLRVLGYNHNGEWCEACTKNGQGWVPSNYITPVN [Q40C], the abundance fitness was -0.086 ± 0.12. To NLFVALYDFVASGDNTLSITKGEKLRVLGYNHNGEWCEAATKNGQGWVPSNYITPVN [Q40A] belongs -0.018 ± 0.058; to NLFVALYDFVASGDNTLSITKGEKLRVLGYNHNGEWCEAETKNGQGWVPSNYITPVN [Q40E], -0.199 ± 0.066; to NLFVALYDFVASGDNTLSITKGEKLRVLGYNHNGEWCEAFTKNGQGWVPSNYITPVN [Q40F], -0.108 ± 0.1. To NLFVALYDFVASGDNTLSITKGEKLRVLGYNHNGEWCEADTKNGQGWVPSNYITPVN [Q40D] belongs -0.341 ± 0.15.

The record behind these values is the Human Domainome abundance scans (Beltran et al. 2025).
